These results are taken from patent US10669246B2, “Benzothiazol compounds and methods using the same for treating neurodegenerative disorders” (1ST Biotherapeutics, Inc., priority 2017, dated 2020).

This data set can be described thus: in vivo. The following applies: male, ICR, mouse, po, 5 mg/kg.

The term AUC(0-inf) denotes the area under the concentration-time curve extrapolated to infinity. For `Cc1c(F)cncc1-c1ccc2nc(NC(=O)[C@@H]3C[C@@H]3F)sc2c1` [Example 8, (1S,2S)-2-fluoro-N-(6-(5-fluoro-4-methylpyridin-3-yl)benzo[d]thiazol-2-yl)cyclopropane-1-carboxamide], the AUC(0-inf) is 20000 ng·h/mL (brain), 25200 ng·h/mL (in vivo) and 14500 ng·h/mL (plasma).
